The results in this text go back to patent US4766140A, “Method of inhibiting aromatase” (Eli Lilly and Company, priority 1984, dated 1988).

The assay deals with T1, aromatase (Rattus norvegicus, UniProt P22443).
T1 construct: ovarian microsomes are obtained from rats treated with pregnant mares serum gonadotropin; from tissue; host or cells: ovarian microsomes from rats treated with pregnant mares serum gonadotropin
T1 sequence (P22443 1-508): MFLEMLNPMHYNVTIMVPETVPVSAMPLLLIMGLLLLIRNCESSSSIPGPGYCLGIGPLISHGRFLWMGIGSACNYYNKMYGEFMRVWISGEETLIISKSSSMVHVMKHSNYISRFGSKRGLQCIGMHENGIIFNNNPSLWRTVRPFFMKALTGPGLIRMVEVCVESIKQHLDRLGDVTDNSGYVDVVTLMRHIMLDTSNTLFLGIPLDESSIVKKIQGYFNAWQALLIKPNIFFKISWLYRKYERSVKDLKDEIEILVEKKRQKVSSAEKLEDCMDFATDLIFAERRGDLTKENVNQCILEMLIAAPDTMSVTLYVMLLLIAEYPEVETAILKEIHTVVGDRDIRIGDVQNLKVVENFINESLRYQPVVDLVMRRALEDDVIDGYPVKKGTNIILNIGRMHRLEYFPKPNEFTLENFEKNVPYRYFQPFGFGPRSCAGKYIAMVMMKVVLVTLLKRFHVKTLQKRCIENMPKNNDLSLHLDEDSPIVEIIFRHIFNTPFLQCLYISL
Briefly: Aromatase inhibition in the rat ovarian microsome assay. The format is biochemical. The settings on record: rat ovarian microsomes; substrate (androstenedione) concentration 0.1 μM.

The structures appear in SMILES notation. Structures can show the parent of a compound that is named as a salt.

Usually EC50 stands for the concentration giving half of the maximal effect. A lower EC50 goes with higher potency in that assay. For the compound `OC(CCn1ccnc1)(c1ccccc1)c1ccccc1` [1,1-diphenyl-3-(1-imidazolyl)-1-propanol], the response was half-maximal at 84 nM (EC50).
`Clc1ccc(CCn2ccnc2)cc1Cl` [1-(3,4-dichlorophenylethyl)-1H-imidazole, oxalic acid salt] had a concentration giving a half-maximal response (EC50) of 84 nM.
